The text below walks through data of ChEMBL document CHEMBL1145560, “Use of receptor chimeras to identify small molecules with high affinity for the dynorphin A binding domain of the kappa opioid receptor” (Bioorg Med Chem Lett, 2008).

Amino acid sequences for entries named in this document (tags omitted). A change or cut given only in a name is not applied to a line headed by its entry.
UniProt P35372, whole entry, looked up: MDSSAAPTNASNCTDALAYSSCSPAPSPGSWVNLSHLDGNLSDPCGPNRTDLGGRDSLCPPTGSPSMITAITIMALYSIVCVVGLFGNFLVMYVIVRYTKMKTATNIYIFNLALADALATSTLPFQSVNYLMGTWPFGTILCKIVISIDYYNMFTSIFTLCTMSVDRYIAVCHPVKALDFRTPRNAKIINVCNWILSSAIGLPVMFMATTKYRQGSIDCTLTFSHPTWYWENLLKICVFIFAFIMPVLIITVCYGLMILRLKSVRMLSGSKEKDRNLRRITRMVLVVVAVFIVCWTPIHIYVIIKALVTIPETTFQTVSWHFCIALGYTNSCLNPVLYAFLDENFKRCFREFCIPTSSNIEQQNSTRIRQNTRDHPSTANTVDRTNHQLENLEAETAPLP
UniProt P41145: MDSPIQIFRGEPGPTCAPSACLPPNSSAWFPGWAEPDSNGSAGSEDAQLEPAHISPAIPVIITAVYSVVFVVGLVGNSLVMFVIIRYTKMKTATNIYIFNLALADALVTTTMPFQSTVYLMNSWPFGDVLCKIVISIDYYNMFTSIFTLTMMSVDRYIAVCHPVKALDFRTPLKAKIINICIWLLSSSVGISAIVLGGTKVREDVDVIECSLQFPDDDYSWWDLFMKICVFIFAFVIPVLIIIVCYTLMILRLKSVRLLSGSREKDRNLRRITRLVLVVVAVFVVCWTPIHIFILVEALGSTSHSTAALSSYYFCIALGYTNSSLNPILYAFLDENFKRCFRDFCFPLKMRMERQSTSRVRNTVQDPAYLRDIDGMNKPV
UniProt P41143, whole entry, looked up: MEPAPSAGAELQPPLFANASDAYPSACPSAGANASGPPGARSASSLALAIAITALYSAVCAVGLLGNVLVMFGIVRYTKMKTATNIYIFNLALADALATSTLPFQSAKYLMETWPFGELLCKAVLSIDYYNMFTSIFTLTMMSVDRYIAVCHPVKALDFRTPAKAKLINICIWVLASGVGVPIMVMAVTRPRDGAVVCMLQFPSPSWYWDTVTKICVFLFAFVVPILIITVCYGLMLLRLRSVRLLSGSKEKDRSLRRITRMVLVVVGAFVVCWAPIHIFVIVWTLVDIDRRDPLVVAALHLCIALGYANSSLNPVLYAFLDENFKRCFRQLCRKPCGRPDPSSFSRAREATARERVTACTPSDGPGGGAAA

In general, Ki refers to a dissociation constant, usually derived from enzyme kinetics or from competition with a known ligand. Low values mean tighter binding, high ones weaker binding. Usually EC50 stands for the concentration needed to bring the measured effect to its halfway point.

Bounds are passed on as bounds.

The target of one test is Mu-type opioid receptor (Homo sapiens, UniProt P35372). Conditions: cho-k1.
Test [1] in a line: Displacement of [3H]diprenorphine from human kappa/mu opioid chimera 4 receptor. (In general: In a radioligand displacement assay an active substance lowers the binding of a labelled ligand.)
Test [2] addresses T1, Kappa-type opioid receptor (Homo sapiens, UniProt P41145). Put plainly: Agonist activity at human kappa opioid receptor transfected in CHO cells by [35S]GTP-gamma-S binding assay. In general terms: GTPγS resists hydrolysis and so accumulates on activated G proteins.
Test [3] concerns the target Delta-type opioid receptor (Homo sapiens, UniProt P41143). As to the kind of experiment: Displacement of [3H]diprenorphine from human delta opioid receptor expressed in CHO-K1 cells.
The nature of test [4]: Displacement of [3H]diprenorphine from human kappa/mu opioid chimera 3 receptor.
For test [5], the target named is T1, Kappa-type opioid receptor. As to the kind of experiment: Displacement of [3H]diprenorphine from human kappa opioid receptor expressed in CHO-K1 cells.

With `COc1ccc(CC(=O)N(C)[C@H](CN2CCCC2)c2ccccc2)cc1OC`, the Ki on Mu-type opioid receptor is over 1 µM; in test [1], 0.12 µM; in test [3], 0.5 µM; in test [4], 0.3 µM. Besides, the EC50 in test [2] was found to be 0.006 µM.
Turning to `CN(C(=O)Cc1ccc(Cl)c(Cl)c1)[C@H](CN1CCCC1)c1ccccc1`, the Ki in test [1] came to 0.001 µM; in test [4], 0.014 µM.
`CN(C(=O)Cc1ccc2c(c1)OCO2)[C@H](CN1CCCC1)c1ccccc1`: the Ki at Mu-type opioid receptor was determined as 0.45 µM; in test [1], 0.068 µM; in test [3] it was 0.58 µM; in test [4] it was 0.22 µM; in test [5], 0.0007 µM. Moreover, in test [2], the EC50 was 0.00043 µM.
